Measurements as given in PubChem BioAssay (NCI).
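Cells were grown in 96-well plates and exposed to each compound for 48 hours at five concentrations; endpoints were interpolated linearly between bracketing concentrations, or set to the highest concentration if not reached. The concentration for 50% growth inhibition is given as GI50. TGI: concentration producing complete growth inhibition.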

Tests used:
Experiment in all cases: inhibition of tumour cell growth, NCI panel, 48 h
[1] = test system: HCT-15 colon
[2] = test system: HOP-62 NSCLC
[3] = test system: KM12 colon
[4] = test system: SK-OV-3 ovarian
[5] = test system: M14 melanoma
[6] = test system: T-47D breast
[7] = test system: PC-3 prostate
[8] = test system: K-562 leukemia
[9] = test system: UO-31 renal
[10] = test system: SF-295 CNS
[11] = test system: A498 renal
[12] = test system: OVCAR-3 ovarian
[13] = test system: UACC-62 melanoma
[14] = test system: SNB-75 CNS
[15] = test system: LOX IMVI melanoma
[16] = test system: CAKI-1 renal
[17] = test system: RXF 393 renal
[18] = test system: RPMI-8226 leukemia
[19] = test system: COLO 205 colon
[20] = test system: OVCAR-5 ovarian
[21] = test system: NCI-H460 lung
[22] = test system: NCI-H23 lung
[23] = test system: OVCAR-8 ovarian
[24] = test system: MDA-MB-435
[25] = test system: NCI-H522 lung
[26] = test system: HS 578T breast
[27] = test system: MDA-MB-231 breast
[28] = test system: NCI/ADR-RES ovarian
[29] = test system: SR leukemia
[30] = test system: 786-0 renal
[31] = test system: A549 NSCLC
[32] = test system: NCI-H322M lung
[33] = test system: SW-620 colon
[34] = test system: SK-MEL-2 melanoma
[35] = test system: MDA-N
[36] = test system: IGROV1 ovarian
[37] = test system: MOLT-4 leukemia
[38] = test system: BT-549 breast
[39] = test system: DU-145 prostate
[40] = test system: SF-268 CNS
[41] = test system: ACHN renal
[42] = test system: SF-539 CNS
[43] = test system: SNB-19 CNS
[44] = test system: TK-10 renal
[45] = test system: SK-MEL-28 melanoma
[46] = test system: NCI-H226 lung
[47] = test system: HCC-2998 colon
[48] = test system: HCT-116 colon
[49] = test system: MALME-3M melanoma
[50] = test system: OVCAR-4 ovarian
[51] = test system: MCF7 breast
[52] = test system: HT29 colon
[53] = test system: SK-MEL-5 melanoma
[54] = test system: U251 CNS
[55] = test system: UACC-257 melanoma
[56] = test system: EKVX NSCLC
[57] = test system: HOP-92 NSCLC

Structure (SMILES): Cc1ccc2ccc(C)c(C)c2c1.O=[N+]([O-])c1cc([N+](=O)[O-])c(O)c([N+](=O)[O-])c1O
- GI50 [1]: > 100 µM
- TGI [1]: > 100 µM
- GI50 [2]: > 100 µM
- TGI [2]: > 100 µM
- GI50 [3]: > 100 µM
- TGI [3]: > 100 µM
- GI50 [4]: > 100 µM
- TGI [4]: > 100 µM
- GI50 [5]: 84.4 µM
- TGI [5]: > 100 µM
- GI50 [6]: > 100 µM
- TGI [6]: > 100 µM
- GI50 [7]: > 100 µM
- TGI [7]: > 100 µM
- GI50 [8]: > 100 µM
- TGI [8]: > 100 µM
- GI50 [9]: > 100 µM
- TGI [9]: > 100 µM
- GI50 [10]: > 100 µM
- TGI [10]: > 100 µM
- GI50 [11]: > 100 µM
- TGI [11]: > 100 µM
- GI50 [12]: > 100 µM
- TGI [12]: > 100 µM
- GI50 [13]: > 100 µM
- TGI [13]: > 100 µM
- GI50 [14]: > 100 µM
- TGI [14]: > 100 µM
- GI50 [15]: > 100 µM
- TGI [15]: > 100 µM
- GI50 [16]: 58.1 µM
- TGI [16]: > 100 µM
- GI50 [17]: > 100 µM
- TGI [17]: > 100 µM
- GI50 [18]: > 100 µM
- TGI [18]: > 100 µM
- GI50 [19]: > 100 µM
- TGI [19]: > 100 µM
- GI50 [20]: > 100 µM
- TGI [20]: > 100 µM
- GI50 [21]: 0.0375 µM
- TGI [21]: > 100 µM
- GI50 [22]: > 100 µM
- TGI [22]: > 100 µM
- GI50 [23]: 89.4 µM
- TGI [23]: > 100 µM
- GI50 [24]: > 100 µM
- TGI [24]: > 100 µM
- GI50 [25]: 70.2 µM
- TGI [25]: > 100 µM
- GI50 [26]: > 100 µM
- TGI [26]: > 100 µM
- GI50 [27]: > 100 µM
- TGI [27]: > 100 µM
- GI50 [28]: > 100 µM
- TGI [28]: > 100 µM
- GI50 [29]: 0.288 µM
- TGI [29]: > 100 µM
- GI50 [30]: > 100 µM
- TGI [30]: > 100 µM
- GI50 [31]: > 100 µM
- TGI [31]: > 100 µM
- GI50 [32]: > 100 µM
- TGI [32]: > 100 µM
- GI50 [33]: > 100 µM
- TGI [33]: > 100 µM
- GI50 [34]: > 100 µM
- TGI [34]: > 100 µM
- GI50 [35]: > 100 µM
- TGI [35]: > 100 µM
- GI50 [36]: > 100 µM
- TGI [36]: > 100 µM
- GI50 [37]: > 100 µM
- TGI [37]: > 100 µM
- GI50 [38]: > 100 µM
- TGI [38]: > 100 µM
- GI50 [39]: > 100 µM
- TGI [39]: > 100 µM
- GI50 [40]: > 100 µM
- TGI [40]: > 100 µM
- GI50 [41]: > 100 µM
- TGI [41]: > 100 µM
- GI50 [42]: > 100 µM
- TGI [42]: > 100 µM
- GI50 [43]: > 100 µM
- TGI [43]: > 100 µM
- GI50 [44]: > 100 µM
- TGI [44]: > 100 µM
- GI50 [45]: > 100 µM
- TGI [45]: > 100 µM
- GI50 [46]: > 100 µM
- TGI [46]: > 100 µM
- GI50 [47]: > 100 µM
- TGI [47]: > 100 µM
- GI50 [48]: > 100 µM
- TGI [48]: > 100 µM
- GI50 [49]: > 100 µM
- TGI [49]: > 100 µM
- GI50 [50]: > 100 µM
- TGI [50]: > 100 µM
- GI50 [51]: > 100 µM
- TGI [51]: > 100 µM
- GI50 [52]: > 100 µM
- TGI [52]: > 100 µM
- GI50 [53]: > 100 µM
- TGI [53]: > 100 µM
- GI50 [54]: > 100 µM
- TGI [54]: > 100 µM
- GI50 [55]: > 100 µM
- TGI [55]: > 100 µM
- GI50 [56]: 42 µM
- TGI [56]: > 100 µM
- GI50 [57]: 67.8 µM
- TGI [57]: > 100 µM
